Values of other authors in publication PMC10383573, “New Imadazopyrazines with CDK9 Inhibitory Activity as Anticancer and Antiviral: Synthesis, In Silico, and In Vitro Evaluation Approaches” (Pharmaceuticals, 2023).

Chains of the proteins cited; added tags and fusions are not shown.
UniProt P50750, whole entry: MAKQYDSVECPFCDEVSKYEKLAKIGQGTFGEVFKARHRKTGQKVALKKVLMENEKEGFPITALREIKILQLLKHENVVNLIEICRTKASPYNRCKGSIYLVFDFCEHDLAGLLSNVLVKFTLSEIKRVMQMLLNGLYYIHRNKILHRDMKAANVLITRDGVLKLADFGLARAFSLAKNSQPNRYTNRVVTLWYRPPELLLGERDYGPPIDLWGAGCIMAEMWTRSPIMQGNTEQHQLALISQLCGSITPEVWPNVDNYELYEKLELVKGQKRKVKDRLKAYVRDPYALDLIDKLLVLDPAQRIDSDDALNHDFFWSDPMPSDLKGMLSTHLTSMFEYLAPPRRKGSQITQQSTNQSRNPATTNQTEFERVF

Biological target: CDK9 (Homo sapiens, UniProt P50750)
Design: purchased BPS Biosciences (San Diego, CA)
Conditions: cited from earlier work

For `Oc1ccc(-c2nc3cnccn3c2NCCc2ccccc2)cc1O` [Compound 1], the IC50 is given as 7.88 µM.
